Laboratory results: patent US12421254B2, “KRAS modulators and uses thereof” (Quanta Therapeutics, Inc., priority 2023, dated 2025)

Sequences of proteins named here, by UniProt entry; tags and fusion partners are left off. Residues count along the entry.
UniProt P01116, 2-169 isoform 2 G12D limits assumed: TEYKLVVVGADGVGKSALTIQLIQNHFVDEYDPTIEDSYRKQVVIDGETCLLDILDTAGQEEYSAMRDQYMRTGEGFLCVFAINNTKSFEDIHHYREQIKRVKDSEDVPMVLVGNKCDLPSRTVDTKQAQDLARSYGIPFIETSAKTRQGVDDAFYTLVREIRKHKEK
UniProt P01116, 2-169 isoform 2 G12V limits assumed: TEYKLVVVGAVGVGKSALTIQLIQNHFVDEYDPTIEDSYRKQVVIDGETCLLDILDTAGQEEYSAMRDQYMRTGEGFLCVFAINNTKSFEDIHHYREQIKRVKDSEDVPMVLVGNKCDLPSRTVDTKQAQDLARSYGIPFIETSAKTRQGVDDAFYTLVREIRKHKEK

Assays:
[1] = test system: phospho-ERK in SW620 (KRAS-G12V) cells; test: pERK In Cell Western (ICW) assay (Method B), SW620; conditions: read-out: ICW SW620 IC50, Table 4, 3 hours, tested form: TFA
Experimental: (§1) pERK ICW is a high throughput screening assay to evaluate the cellular potency of mutant KRAS small molecule inhibitors. KRAS mutant cell lines AGS, GP2D (KRAS-G12D) as well as SW620 (KRAS-G12V) were purchased from ATCC and maintained respectively in RPMI/DMEM/RPMI medium supplemented with 10% fetal bovine serum.
(§2) Cells grown in exponential phase were trypsinized, resuspended in fresh media, and viable cells were counted using a cell counter with Trypan Blue (BioRad TC20). Cells were seeded into 384-well plate (Greiner 781091) at density of 5,000 cells/well for AGS and 10,000 cells/well for GP2D/SW620 and allowed to grow overnight in a 37° C. CO2 incubator. The next day, compounds were dispensed into wells with a ½ log, 9-point serial dilution using a Tecan D300e dispenser and incubated for 3 hours in a 37° C. CO2 incubator. Cells were then fixed with paraformaldehyde (Electron Microscopy Sciences, 15710, 4% final concentration) for 30 min, permeabilized with wash buffer (1×PBS+0.1% Triton X-100) for 30 min and blocked with Odyssey blocking buffer (Li—COR 927-70001) for 1 hour, all at room temperature (RT). Phospho-ERK antibody (CST 4370L) was diluted 1:500 in Odyssey T20 (PBS) antibody diluent (Li—COR 927-75001) and incubated with cells overnight at 4° C. […]

[2] = target: GST-tagged KRAS-G12V (2-169) (Homo sapiens, UniProt P01116, G12V); test: Nucleotide exchange assay (NEA), SOS-mediated, HTRF, KRAS G12V; conditions: read-out: NEA G12V IC50; Table 4; IC50 extracted at 90 min; 80 nM SOS; tested form: TFA
Description: (§3) This activity is tightly regulated by GTPase activating proteins (GAPs) and guanine nucleotide exchange factors (GEFs). GEFs, such as SOS1/2, activate Ras proteins by exchanging GDP for GTP, thus returning Ras to its active conformation (Simanshu, Nissley, & McCormick, 2017). […] Homogenous time resolved fluorescence (HTRF) was used to detect SOS-mediated binding of a fluorescent GTP analog, GTP-DY-647P1 (Jena Biosciences NU-820-647P1) to GST-tagged KRAS-G12D (2-169) or to GST-tagged KRAS-G12V (2-169, Reaction Biology, MSC-11-540).
(§4) GST-tagged KRAS-G12D (2-169) and anti-GST MAb Tb Cryptate Gold (CisBio 61GSTTLB) were diluted into assay buffer (20 mM HEPES, pH 7.3, 150 mM NaCl, 5 mM MgCl2, 0.05% BSA 0.0025% NP40, 1 mM DTT) to prepare a 2.5× donor solution. 5× compound was added to the protein mixture and incubated for 1 h at RT. 2.5× acceptor solution containing SOS1cat (564-1049, Reaction Biology MSC-11-502) and GTP-DY-647P1 were then added to the donor KRAS mixture such that the final concentration of the reaction contained 0.25 nM GST-tagged KRAS-G12D (2-169), 20 nM SOScat, and 150 nM GTP-DY-647P1. The reaction was monitored using at RT with the Envision multimode plate reader (Ex/Em 337/665, […]) up to 90 minutes at 5 minute intervals. […] Data was blanked to reactions without SOS1 and % inhibition was calculated such that DMSO only =0% and blank=100%. […]

[3] = test system: phospho-ERK in GP2D (KRAS-G12D) cells; test: pERK In Cell Western (ICW) assay (Method B), GP2D; conditions: read-out: ICW GP2D IC50, Table 4, 3 hours, tested form: TFA
Experimental: as §1, §2

[4] = target: GST-tagged KRAS-G12D (2-169) (Homo sapiens, UniProt P01116, G12D); test: Nucleotide exchange assay (NEA), SOS-mediated, HTRF, KRAS G12D; conditions: read-out: NEA G12D IC50; Table 4; IC50 extracted at 30 min; 20 nM SOScat; tested form: TFA
Description: as §3, §4

`CC1(O)CCCN(c2nc(OCC3(CN4CCOCC4)CC3)nc(N3CC4(CCc5sc(N)c(C#N)c54)C3)n2)C1` (stereo not shown) gave an IC50 [1] of 100 to 1000 nM, an IC50 [2] of under 10 nM and an IC50 [3] of 10 to 100 nM. It also gave an IC50 [4] of under 10 nM.
